Literature values, collected in publication PMC10411393 (Journal of medicinal chemistry, 2022).

Target: Plk1
Conditions: read-out: binding affinity (KD) against Plk1; cited from earlier work

Substance: PLH*SpT
- Kd: 1 to 2 nM
